Experimental data: US7538096B2, “Treatment and prevention of abnormal cellular proliferation” (The General Hospital Corporation, priority 2004, dated 2009)

System: coagulation
Assay: anticoagulant property (no test named)

For “O-Hexanoyl derivative of periodate-oxidized heparin fragments [hexanoylated heparin]”, the anticoagulant property was “virtually no”.
